Earlier results as cited in patent US4933369A, “Dimethyl tyrosyl amide sulfides, sulfoxides and sulfones” (G. D. Searle & Co., priority 1988, dated 1990).

Test system: opioid receptors
Conditions: cited from earlier work

For `C=CCN1CC[C@]23c4c5ccc(O)c4O[C@H]2C(=O)CC[C@@]3(O)[C@H]1C5` [naloxone], the “affinity for all opioid receptors” value is given as “high affinity” and the “affinity for μ receptors relative to 6 receptor sites” value (μ receptors vs 6 receptor sites) is given as “more than ten times higher”.
